Test results from publication PMC3663048 (Journal of medicinal chemistry, 2011).

The chains behind the UniProt entries cited, without tags or fusion partners. Where a name states a change or a piece, a line headed by the entry shows the natural chain unless it says otherwise.
UniProt P51955: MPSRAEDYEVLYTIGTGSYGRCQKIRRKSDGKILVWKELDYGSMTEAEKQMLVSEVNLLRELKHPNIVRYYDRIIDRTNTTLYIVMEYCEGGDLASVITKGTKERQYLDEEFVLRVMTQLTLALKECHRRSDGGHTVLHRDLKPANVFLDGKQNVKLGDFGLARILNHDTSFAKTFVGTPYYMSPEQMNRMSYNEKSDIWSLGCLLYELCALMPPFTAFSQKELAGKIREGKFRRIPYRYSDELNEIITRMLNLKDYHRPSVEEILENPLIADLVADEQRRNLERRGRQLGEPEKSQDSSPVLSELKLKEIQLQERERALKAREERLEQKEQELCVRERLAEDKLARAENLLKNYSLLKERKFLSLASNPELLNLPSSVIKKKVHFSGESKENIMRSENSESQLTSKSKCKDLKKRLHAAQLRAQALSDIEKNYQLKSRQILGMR

Target: T1, C22V Nek2 kinase domain (aa 1-271) (Homo sapiens, UniProt P51955, C22V)
T1 sequence (P51955 1-271 C22V): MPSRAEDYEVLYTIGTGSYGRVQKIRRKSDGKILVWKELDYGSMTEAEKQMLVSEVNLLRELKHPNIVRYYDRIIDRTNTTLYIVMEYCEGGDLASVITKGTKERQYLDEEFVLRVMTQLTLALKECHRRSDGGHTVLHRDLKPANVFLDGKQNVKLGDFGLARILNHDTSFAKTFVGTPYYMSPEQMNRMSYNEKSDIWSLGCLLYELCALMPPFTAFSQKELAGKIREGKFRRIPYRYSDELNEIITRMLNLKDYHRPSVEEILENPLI
Conditions: ten-fold molar excess of compound, physiological pH

| SMILES | Alkylation of C22V Nek2 kinase domain (ESI-MS) |
| --- | --- |
| O=C1Nc2ccc(C(=O)CCl)cc2/C1=C/c1ccc[nH]1 [compound 2, (Z)-3-((1H-Pyrrol-2-yl)methylene)-5-(2-chloroacetyl)indolin-2-one] | No labeling |
| C#CC(=O)Nc1ccc2c(c1)/C(=C/c1ccc[nH]1)C(=O)N2 [compound 8, (Z)-N-(3-((1H-Pyrrol-2-yl)methylene)-2-oxoindolin-5-yl)propiolamide] | No labeling |
